Consider one sequence from patent US5948635A, “Totally Synthetic Affinity Reagents” (University of North Carolina at Chapel Hill, priority 1995, dated 1999).

Amino acid sequences for entries named in this document (tags omitted). Residues count along the entry.
UniProt P22629, 25-183: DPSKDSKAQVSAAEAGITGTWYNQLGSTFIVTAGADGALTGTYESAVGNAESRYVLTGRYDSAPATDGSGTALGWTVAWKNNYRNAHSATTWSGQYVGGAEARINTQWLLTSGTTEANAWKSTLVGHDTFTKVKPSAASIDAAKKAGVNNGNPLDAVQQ

This test has as its target T1, streptavidin (Streptomyces avidinii, UniProt P22629).
T1 construct: purchased Advanced Magnetics, Cambridge, Mass
Description: Inhibition of TSAR binding to streptavidin by biotin and biotin analogs. The method, then: Specificity of the binding of the identified proteins for streptavidin was investigated by evaluating inhibition of binding by biotin and by a number of biotin analogs, including diaminobiotin, immunobiotin, lipoic acid and imidazalidone. Four representative TSARs, pictured in Table 9, were evaluated, i.e., SA-1,-2, -4 and -14 (SEQ ID NOs. 116, 114, 104 and 117). […] IC50 values of about 0.2, 3, 1050 and 5000 μM, respectively, were observed.

In the case of “TWDFTRSSLPAGDTSFTSPGSYSVMTRSCGISCVPAEV [SA-14]”, the “inhibition of TSAR binding to streptavidin by biotin and all the biotin analogs tested” value was “completely inhibited”.
